One experiment has as its target T1, HA-HSP90AB1 (WT) (human, UniProt P08238).
T1 construct: Expressed in 293T cells; also called HA-tagged HSP90AB1; not shown: HA tag
Description: co-immunoprecipitation from co-transfected 293T cells, Western blot (FIG. 3B). The source says:
(§1) [FIG. 3A-D] […] Part A depicts the silver staining of immunoprecipitates from FLAG-mock or FLAG-SMYD2 expressing cells. 293T cells were transfected with FLAG-Mock or FLAG-SMYD2 and immunoprecipitated using an anti-FLAG M2 agarose. Immunoprecipitates were subject to SDS-PAGE and silver staining, followed by mass spectrometry. Part B depicts that 293T cells were co-transfected with HA-HSP90AB1 or HA-Mock and FLAG-SMYD2 expression vectors, and HA-immunoprecipitates were immunoblotted with anti-FLAG and anti-HA antibodies. Part C depicts the interaction of FLAG-SMYD2 with endogenous HSP90. The interaction was confirmed by Western blot of FLAG-immunoprecipitates using anti-HSP90 and anti-FLAG antibodies. Part D depicts that the region included the SET domain of SMYD2 is required for interaction with HSP90AB1. 293T cells were co-transfected with an HA-HSP90AB1 expression vector and six different lengths of FLAG-SMYD2 expression vectors ([1-433], [1-100], [1-250], [100-433], [250-433] and [330-433]). Immunoprecipitation was performed using anti-HA agarose beads, and samples were immunoblotted with anti-FLAG and anti-HA antibodies.
(§2) In order to clarify how SMYD2 promotes cancer cell growth, the present inventors attempted to identify interacting partners of SMYD2. […]

Chains of the proteins cited; added tags and fusions are not shown. Residues count along the entry.
UniProt P08238, whole entry: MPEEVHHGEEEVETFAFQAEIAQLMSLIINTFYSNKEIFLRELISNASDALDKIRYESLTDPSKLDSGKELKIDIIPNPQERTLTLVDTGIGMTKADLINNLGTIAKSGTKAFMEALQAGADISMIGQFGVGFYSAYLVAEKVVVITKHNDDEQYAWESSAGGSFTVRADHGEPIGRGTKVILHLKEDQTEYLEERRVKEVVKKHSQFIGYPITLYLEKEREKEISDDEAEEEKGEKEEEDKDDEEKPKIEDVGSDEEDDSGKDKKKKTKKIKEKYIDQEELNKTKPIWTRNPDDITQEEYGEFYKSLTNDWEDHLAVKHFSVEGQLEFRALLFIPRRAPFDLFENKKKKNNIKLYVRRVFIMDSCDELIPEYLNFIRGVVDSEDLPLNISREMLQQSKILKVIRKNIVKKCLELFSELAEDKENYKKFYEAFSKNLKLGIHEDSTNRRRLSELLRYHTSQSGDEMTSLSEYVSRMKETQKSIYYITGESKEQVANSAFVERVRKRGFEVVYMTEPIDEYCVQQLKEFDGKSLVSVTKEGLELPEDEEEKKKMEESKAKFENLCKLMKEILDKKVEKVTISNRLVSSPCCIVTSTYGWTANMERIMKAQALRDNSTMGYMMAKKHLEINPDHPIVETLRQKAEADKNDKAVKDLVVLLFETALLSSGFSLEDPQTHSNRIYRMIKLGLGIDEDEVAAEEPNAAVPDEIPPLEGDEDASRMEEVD
UniProt P08238, 2-724 limits assumed: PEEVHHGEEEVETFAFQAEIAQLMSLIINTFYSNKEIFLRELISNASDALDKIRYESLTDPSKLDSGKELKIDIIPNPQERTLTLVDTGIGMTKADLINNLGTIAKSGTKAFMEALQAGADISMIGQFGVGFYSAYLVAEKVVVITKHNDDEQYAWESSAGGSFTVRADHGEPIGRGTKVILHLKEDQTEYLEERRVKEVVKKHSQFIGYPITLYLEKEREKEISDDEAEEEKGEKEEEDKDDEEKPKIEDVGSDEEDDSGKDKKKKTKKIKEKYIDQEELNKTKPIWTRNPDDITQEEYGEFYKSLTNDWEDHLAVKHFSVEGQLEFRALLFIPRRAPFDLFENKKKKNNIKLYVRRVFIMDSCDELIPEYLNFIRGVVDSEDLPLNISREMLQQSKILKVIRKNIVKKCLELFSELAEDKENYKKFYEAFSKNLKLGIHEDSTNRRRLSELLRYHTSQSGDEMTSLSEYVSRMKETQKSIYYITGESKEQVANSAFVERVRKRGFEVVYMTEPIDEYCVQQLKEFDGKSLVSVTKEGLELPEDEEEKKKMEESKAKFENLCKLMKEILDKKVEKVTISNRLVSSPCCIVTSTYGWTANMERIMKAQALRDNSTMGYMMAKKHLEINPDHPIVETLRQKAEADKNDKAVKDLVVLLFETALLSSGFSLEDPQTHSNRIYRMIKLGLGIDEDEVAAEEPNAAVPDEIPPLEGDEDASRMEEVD

Experiment [1] concerns the target T2, HSP90AB1 (endogenous, 293T cells) (human, UniProt P08238).
T2 construct: Endogenous protein of 293T cells; also called endogenous HSP90
Description: anti-FLAG immunoprecipitation from FLAG-SMYD2 293T cells, silver staining and mass spectrometry (FIG. 3A).
Text: as §1, §2

B1: FLAG-SMYD2 (enzyme)
chain: MRAEGLGGLERFCSPGKGRGLRALQPFQVGDLLFSCPAYAYVLTVNERGNHCEYCFTRKEGLSKCGRCKQAFYCNVECQKEDWPMHKLECSPMVVFGENWNPSETVRLTARILAKQKIHPERTPSEKLLAVKEFESHLDKLDNEKKDLIQSDIAALHHFYSKHLGFPDNDSLVVLFAQVNCNGFTIEDEELSHLGSAIFPDVALMNHSCCPNVIVTYKGTLAEVRAVQEIKPGEEVFTSYIDLLYPTEDRNDRLRDSYFFTCECQECTTKDKDKAKVEIRKLSDPPKAEAIRDMVRYARNVIEEFRRAKHYKSPSELLEICELSQEKMSSVFEDSNVYMLHMMYQAMGVCLYMQDWEGALQYGQKIIKPYSKHYPLYSLNVASMWLKLGRLYMGLEHKAAGEKALKKAIAIMEVAHGKDHPYISEIKQEIESH
notes: Expressed in 293T cells from a FLAG expression vector; full length SMYD2 (1-433); also called FLAG-SMYD2 (WT); FLAG-SMYD2 [1-433]; not shown: FLAG tag
As to B1, the binding result (with HA-HSP90AB1 (WT); in experiment [1]) was “binds” each time.

For the origin of these results see patent US20140308678A1 (ONCOTHERAPY SCIENCE, published 2014).
